Counter-ions that a name gives are not always drawn. Like-named read-outs stand apart in the source and are kept apart here.
Test system: white blood cell number, red blood cell number, platelet number
Details: mouse, in vivo, po

## CC(=O)N1CCC(N[C@@H]2C[C@H]2c2cccc(C(=O)Nc3ccc(F)cc3)c2)CC1 (relative stereo) [Example 206, 3-(trans-2-((1-acetylpiperidin-4-yl)amino)cyclopropyl)-N-(4-fluorophenyl) benzamide hydrochloride]
10 mg/kg
  platelet number, percentage of compound administration group compared to control group, mean: 85.5%
  red blood cell number, percentage of compound administration group compared to control group, mean: 102.1%
  white blood cell number, percentage of compound administration group compared to control group, mean: 92.7%
100 mg/kg
  platelet number, percentage of compound administration group compared to control group, mean: 84.3%
  red blood cell number, percentage of compound administration group compared to control group, mean: 102.3%
  white blood cell number, percentage of compound administration group compared to control group, mean: 130.7%
